Laboratory results: ChEMBL document CHEMBL1127704 (J Med Chem, 1994)
pIC50: −log10 of the molar value.

Molecular target: T1, Dihydrofolate reductase (Rattus norvegicus, UniProt Q920D2)
T1 sequence (Q920D2 whole entry): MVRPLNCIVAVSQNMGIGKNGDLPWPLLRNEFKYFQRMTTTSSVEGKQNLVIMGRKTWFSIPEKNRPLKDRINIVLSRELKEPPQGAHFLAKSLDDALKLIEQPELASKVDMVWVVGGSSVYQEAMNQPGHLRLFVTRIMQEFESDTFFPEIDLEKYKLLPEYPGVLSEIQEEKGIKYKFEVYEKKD

Compound: COc1cc(CCCNc2ccc3nc(N)nc(N)c3c2Cl)cc(OC)c1OC
- pIC50: 4.72
